Measured values published in ChEMBL document CHEMBL6182948 (J Med Chem, 2025).

Legend:
Cytochrome P450 1A1 = molecular target: T1, Cytochrome P450 1A1 (Homo sapiens, UniProt P04798); assay: Inhibition of human recombinant CYP1A1 using 7-ethoxyresorufin as substrate incubated under dark condition for 15 mins in presence of NADPH by EROD fluorescence assay; assay type: ADME
T1 sequence (P04798 whole entry): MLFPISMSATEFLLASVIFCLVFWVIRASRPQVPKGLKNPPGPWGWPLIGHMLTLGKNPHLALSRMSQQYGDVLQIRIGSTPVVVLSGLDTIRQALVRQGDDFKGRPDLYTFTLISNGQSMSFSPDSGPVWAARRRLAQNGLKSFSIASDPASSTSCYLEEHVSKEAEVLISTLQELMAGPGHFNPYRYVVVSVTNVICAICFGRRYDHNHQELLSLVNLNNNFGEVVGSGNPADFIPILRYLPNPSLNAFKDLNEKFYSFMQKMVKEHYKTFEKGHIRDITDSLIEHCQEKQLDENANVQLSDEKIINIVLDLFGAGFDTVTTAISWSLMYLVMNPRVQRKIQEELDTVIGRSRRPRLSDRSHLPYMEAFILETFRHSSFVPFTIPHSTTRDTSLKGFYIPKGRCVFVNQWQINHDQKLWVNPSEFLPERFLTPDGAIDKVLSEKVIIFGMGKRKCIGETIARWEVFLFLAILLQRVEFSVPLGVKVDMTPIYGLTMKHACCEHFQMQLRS

Cytochrome P450 1B1 = molecular target: T2, Cytochrome P450 1B1 (Homo sapiens, UniProt Q16678); assay: Inhibition of human recombinant CYP1B1 using 7-ethoxyresorufin as substrate incubated under dark condition for 30 mins in presence of NADPH by EROD fluorescence assay; assay type: ADME
T2 sequence (Q16678 whole entry): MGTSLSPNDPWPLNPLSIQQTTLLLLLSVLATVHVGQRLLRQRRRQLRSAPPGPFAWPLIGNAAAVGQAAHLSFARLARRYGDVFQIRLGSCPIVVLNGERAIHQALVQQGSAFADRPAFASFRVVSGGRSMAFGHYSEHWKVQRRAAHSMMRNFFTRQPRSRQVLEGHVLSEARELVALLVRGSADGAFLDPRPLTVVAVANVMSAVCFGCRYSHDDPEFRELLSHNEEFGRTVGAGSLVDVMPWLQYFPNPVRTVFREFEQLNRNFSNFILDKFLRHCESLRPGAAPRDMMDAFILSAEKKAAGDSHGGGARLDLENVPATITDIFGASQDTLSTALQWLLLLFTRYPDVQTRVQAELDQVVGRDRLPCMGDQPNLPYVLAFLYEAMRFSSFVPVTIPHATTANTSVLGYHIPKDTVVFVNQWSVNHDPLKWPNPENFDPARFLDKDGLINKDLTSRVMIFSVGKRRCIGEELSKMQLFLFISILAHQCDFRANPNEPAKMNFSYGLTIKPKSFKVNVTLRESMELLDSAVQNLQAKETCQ

Structure (SMILES): COc1cc(/C=C/c2ccc(OC)cc2OC)cc(OC)c1
- pIC50 (Cytochrome P450 1A1): 6.42
- pIC50 (Cytochrome P450 1B1): 8.29

pIC50: −log10 of the molar value.
